Results taken from ChEMBL document CHEMBL1148652, “Design of potent, orally available antagonists of the transient receptor potential vanilloid 1. Structure-activity relationships of 2-piperazin-1-yl-1H-benzimidazoles” (J Med Chem, 2006).

Sequences of proteins named here, by UniProt entry; tags and fusion partners are left off.
UniProt O35433, whole entry: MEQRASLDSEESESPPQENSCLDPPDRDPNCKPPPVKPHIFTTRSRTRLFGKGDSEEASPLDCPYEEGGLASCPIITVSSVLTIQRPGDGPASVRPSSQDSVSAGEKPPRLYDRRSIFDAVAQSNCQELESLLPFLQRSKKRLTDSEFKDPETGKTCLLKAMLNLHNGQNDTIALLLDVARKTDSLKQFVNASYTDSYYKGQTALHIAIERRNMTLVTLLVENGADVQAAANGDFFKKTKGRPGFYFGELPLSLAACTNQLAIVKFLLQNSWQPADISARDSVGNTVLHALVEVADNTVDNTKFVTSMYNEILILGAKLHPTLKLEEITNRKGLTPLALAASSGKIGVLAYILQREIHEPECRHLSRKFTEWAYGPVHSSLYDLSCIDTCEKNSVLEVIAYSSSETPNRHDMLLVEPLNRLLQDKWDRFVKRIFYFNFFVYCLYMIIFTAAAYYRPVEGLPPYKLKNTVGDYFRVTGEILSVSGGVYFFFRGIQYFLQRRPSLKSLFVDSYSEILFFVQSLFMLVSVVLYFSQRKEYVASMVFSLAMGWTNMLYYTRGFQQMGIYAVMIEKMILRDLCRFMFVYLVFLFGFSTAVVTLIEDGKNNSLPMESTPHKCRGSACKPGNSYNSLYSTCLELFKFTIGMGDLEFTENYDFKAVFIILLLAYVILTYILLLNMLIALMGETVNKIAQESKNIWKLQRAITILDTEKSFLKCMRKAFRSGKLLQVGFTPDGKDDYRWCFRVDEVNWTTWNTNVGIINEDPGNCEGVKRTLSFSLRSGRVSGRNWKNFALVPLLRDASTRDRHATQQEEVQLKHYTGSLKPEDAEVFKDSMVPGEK

Assays:
[1] = molecular target: T1, Transient receptor potential cation channel subfamily V member 1 (Rattus norvegicus, UniProt O35433); experiment: Antagonist activity against capsaicin-induced 45calcium ion uptake in CHO cells expressing rat TRPV1; assay type: functional, cell-based
How it was run: (§1)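 CHO cells recombinantly expressing rat TRPV1; inhibition of 45Ca2+ uptake triggered by capsaicin or by acid, pH 5. Functional IC50 in nM, averaged over at least two independent experiments, each with three replicates per concentration.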

[2] = molecular target: T1, Transient receptor potential cation channel subfamily V member 1; experiment: Antagonist activity against acid-induced 45calcium ion uptake in CHO cells expressing rat TRPV1 at pH5; assay type: functional, cell-based; how it was run: as §1

Row | SMILES | IC50 [1] | IC50 [2]
1 | FC(F)(F)c1ccc2[nH]c(N3CCN(c4ccccn4)CC3)nc2c1 | 5.79 µM | > 40 µM
2 | CCOC(=O)c1cccnc1N1CCN(c2nc3ccc(C(F)(F)F)cc3[nH]2)CC1 | 23.8 µM | > 40 µM
3 | CC(C)(C)c1ccc(-c2cc(C(F)(F)F)cc3[nH]c(N4CCN(c5ncccc5C(F)(F)F)CC4)nc23)cc1 | 0.013 µM | –
4 | CC(C)(C)c1ccc(NC(=O)N2CCN(c3ncccc3Cl)CC2)cc1 | 0.0004 µM | 0.0005 µM
